# Measured values published in patent US12410143B2, “Therapeutic inhibitors of the reverse mode of ATP synthase” (priority 2017, dated 2025).
# Key:
# NCI-60 cancer cell lines = assay: NCI-60 one-dose in vitro assay; settings: 10 μM
# F1F0 ATP hydrolase = F1F0 ATP hydrolase (Bos taurus, UniProt P00829+P19483); settings: stereoisomers of 19a [5-6]; cited from earlier work
compound,measurement,setting,value
N#Cc1cccc(C(=O)N=C(Nc2ccc(Cl)cc2)N[C@H](Cn2ccnc2)c2ccc(Cl)cc2Cl)c1,anti-cancer activity (NCI one-dose assay),NCI-60 cancer cell lines,exerted anti-cancer activity
same,inhibits F1F0-ATP hydrolysis,F1F0 ATP hydrolase,inhibits F1F0-ATP hydrolysis
